## Antibody variant affinities, Ab-14 light chain, assay B

Binding partner: SARS-CoV-2 spike HR2 peptide, sequence PDVDLGDISGINAS.

Parent: Ab-14, a human scFv built as VH, three GGGGS repeats, VL. Only the CDRs of the light chain vary.
VH: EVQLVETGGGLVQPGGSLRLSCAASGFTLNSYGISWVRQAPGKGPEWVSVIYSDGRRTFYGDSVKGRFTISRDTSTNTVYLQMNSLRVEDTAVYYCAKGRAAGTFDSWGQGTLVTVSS
VL: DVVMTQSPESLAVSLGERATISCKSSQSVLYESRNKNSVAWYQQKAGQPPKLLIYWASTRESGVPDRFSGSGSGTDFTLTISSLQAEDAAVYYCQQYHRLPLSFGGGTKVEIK

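Designed CDR sequences, proposed from the first random library and measured here. Several design methods are mixed in this list. AlphaSeq pools MATa yeast showing the antibodies with MATalpha yeast showing the peptide. Binding brings cells together so that they mate, and sequencing counts the barcode pairs among the diploids. A regression on co-assayed BCL2-family reference pairs converts the normalised counts of each replicate to an apparent Kd. The assay was run in six technical replicates.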

Each variant is given by its three light chain CDRs, as the data file delimits them; those of the parent are KSSQSVLYESRNKNSVA, WASTRES, QQYHRLPLS. The read-out is the apparent dissociation constant on a log10 scale (nM): the lower, the stronger. Averages over replicates are reported, and they cover detected replicates only. "nd" marks a missing value. The strain was present, yet no cells mated with the target were sequenced in any replicate, which points to weak or no binding. The parent sequence was in this pool as ten entries: three were never detected, three once, and four in most replicates, with averages from 0.34 to 2.37. The authors' rule: three or more of the six replicates give a measured affinity, fewer mean a poor binder. Where one sequence has several entries in the source, the replicates are pooled. Background: pairings of all light chain designs with three empty control strains gave a value in 4% of cases (median 2.64, 5th percentile 1.59). Values in that range, when seen in few replicates, are hard to tell from nonspecific mating. A sequence measured in both rounds can read differently, since the two assays cover different ranges.

log10 Kd (nM), mean	seen in	CDR-L1	CDR-L2	CDR-L3
2.01	6/6	KSSQSVLYESRNKNSVA	WGSTRES	QQYDRLPLS
1.62	3/6	KSSQSVLGESRNKDAVA	WASTRES	QQYHRLPLS
-0.37	6/6	KLSQSWLYESRNKNNVA	SASTRES	QQYHRLPLS
0.57	6/6	KSSQSVLYESRNKNSVA	EASTRES	QTYDRLPLS
2.80	1/6	KISMTYRYESQNKNSIA	EMSRREN	QQYHRLPLS
-0.58	6/6	KLETSVLGESRNKNAVA	SASQREQ	QQYHRLPLS
0.90	6/6	KLSQSVLQESSNKNSVA	WASTRKS	QQYHRLPLS
0.12	6/6	KQSQAVLYESRNKNSVA	DANTRES	QQYHRLPLS
0.40	6/6	KSGQGVLYESPNKNSVA	GASTREP	QQYHRLPLK
1.40	5/6	SLAESSHMESRNKNSVA	DNSTRES	QHYHRLPLS
-0.14	6/6	KLSMSVLMESRNKNSVA	EASTRES	QQYHRLPLS
nd	0/6	KSSQSWLYESENKNSVA	WASTRES	QQYHRWPLS
0.85	6/6	HSSQSVPYESRNKNSVA	SASTREW	QQYHRLPLS
1.46	15/30	KSSQSVLYESRNKNSVA	WATTREV	QQYHRLPLS
2.27	3/6	KISMYLNKESKATNNVA	EMVNRES	QQYDRLPLS
nd	0/6	KSSQSVLYESRNKNSVA	WASTRIS	QQYHRLPLS
0.42	6/6	KSQQSWEYESRNSNNVA	MGSQREV	QQYHRLPLS
0.20	6/6	KLSYGNLYESRNKNSVA	NASTRCQ	QQYHRLPLS
0.26	6/6	TLSDLMYMESRNVNSVA	DLVKREK	QQYHRLPLS
-0.38	6/6	VLEQSTLYESRNKNSVA	NASQRER	QQYHRLPLS
1.18	5/6	KSSQSPLYESRNENSVA	YGSTREM	QQYHRLPLS
0.35	6/6	KSDQSVLPESGNKNSVA	AASTRES	QQYHRLPLS
0.21	6/6	KFSDSVLLESRDKNRVA	NASTRES	QQYHRLPLS
0.50	6/6	KSLQSVLEESRNKNSVA	HASTRED	QQYHVLPLS
-0.53	6/6	KLPQSVLYESRNKNSVA	NASQREE	QQYHRLPLS
1.66	2/6	KSSQSVQYESRNKNSVA	WASTRED	QQYHSLPIS
0.97	6/6	NVGQSMDGESRNRNSVA	HQSTRED	QHYHRLPLS
0.20	6/6	KVSQGIFDGKRNSHSIA	EVTELCT	QQYSRLPLE
-0.16	6/6	KSSQSYLYESGNKNSVA	NASTRES	QQYHRLPLS
3.41	6/6	KVREVQHVESKQKNNVA	DNSTRES	QDYYRLPLS
0.27	6/6	KIQQSVYYEDLNKNSVA	HASTRCS	QQYHRLPLS
0.75	6/6	KVSQSVKFESRNKNSVA	DASTRER	QQYHRLPLS
nd	0/6	KSSASKLYESRDHNSVA	WASTRES	QQYHRLPLD
0.36	6/6	KLEQSEWYESRMCNSVA	NASVRES	QQYHRLPLS
2.63	1/6	KSSQSVLNESRNKNSVA	WASTRES	QQYHRLPTS
0.26	6/6	KVSQSMLYESRMKNSVA	NASQRES	QQYHRLPLS
1.41	6/6	KSSMSVLYESRNKNSVA	AASTRES	QQYHRLPLS
1.35	6/6	TITGEQSMRTQGNWNIA	QAEQKVH	QQYDRLPLA
3.49	2/6	KLRQSTGYESRNKDNIA	DNSTRGR	QQYHRLPLS
nd	0/6	KSSQSVLYDSRNKNSVA	WASTRSS	QQYHRLPLS
1.83	6/6	MLSQMWAIGNKVSNSVA	QASTRFN	QQYDRLPLI
1.28	6/6	MMSQVTGLGMRHRNNVA	QTSTREP	QQYDRLPLV
-0.19	6/6	KLQQSVLYESRNKNSVA	DASTRES	QQYHRLPLS
0.36	6/6	KSSQSWSYESRNKNSRA	GASTRES	QQYHRLPLS
-0.24	6/6	KFSQSVLFQSRNKNSVA	DASTRES	QQYHRLPLS
2.18	4/6	VFMGQWDGVTTTNSAVA	NVDERME	QQYNRLPLM

The last 6 entries again:

CDR-L1,CDR-L2,CDR-L3,"log10 Kd (nM), mean",seen in
MLSQMWAIGNKVSNSVA,QASTRFN,QQYDRLPLI,1.83,6/6
MMSQVTGLGMRHRNNVA,QTSTREP,QQYDRLPLV,1.28,6/6
KLQQSVLYESRNKNSVA,DASTRES,QQYHRLPLS,-0.19,6/6
KSSQSWSYESRNKNSRA,GASTRES,QQYHRLPLS,0.36,6/6
KFSQSVLFQSRNKNSVA,DASTRES,QQYHRLPLS,-0.24,6/6
VFMGQWDGVTTTNSAVA,NVDERME,QQYNRLPLM,2.18,4/6

Reference: Li et al. 2023, doi:10.1038/s41467-023-39022-2. File: FLAb, binding data.